Data: patent publication US20030032614A1, “Method of treating respiratory distress using synthetic polynucleic acids” (priority 1995, published 2003)

Test system: chronic obstructive pulmonary disease
Details: person, COPD, diabetes; 0.0003 mg sublingual drop four times daily

Question: For poly(dA):poly(dT), which reported improvement is on record?
Answer: easier breathing, increased ability to carry out normal, everyday activities, and improved quality of life
